Source: ChEMBL document CHEMBL1148787, “Novel substituted (pyridin-3-yl)phenyloxazolidinones: antibacterial agents with reduced activity against monoamine oxidase A and increased solubility” (J Med Chem, 2007)

Species: Homo sapiens
Assay: Protein binding in human plasma
Settings: read-out: PPB (converted)

SMILES	fraction unbound
C[C@H](O)c1ccc(-c2ccc(N3C[C@H](Cn4ccnn4)OC3=O)cc2F)cn1	0.33
C[C@@H](O)c1ccc(-c2ccc(N3C[C@H](Cn4ccnn4)OC3=O)cc2F)cn1	0.24
